System: PC-3 tumors
Test: PC-3 tumor xenograft study
Type: in vivo, nude mice
Conditions: PC-3 xenograft, IV 10 mg/kg, day 1 and 9, end point day 19

## CC(=O)O[C@@]12CO[C@@H]1C[C@H](O)[C@@]1(C)C(=O)[C@H](O)C3=C(C)[C@@H](OC(=O)[C@H](O)[C@@H](NC(=O)OC(C)(C)C)c4ccccc4)C[C@@](O)([C@@H](OC(=O)c4ccccc4)[C@H]21)C3(C)C [Docetaxel]
  TGI: 84%
